According to patent publication US20120208781A1, “AMINOGLYCOSIDE DOSING REGIMENS” (Achaogen, Inc., priority 2009, published 2012):

Conditions: rat, in vivo

SMILES: NC[C@H]1O[C@H](O[C@H]2[C@H](O)[C@@H](O[C@H]3O[C@H](CO)[C@@H](O)[C@H](N)[C@H]3O)[C@H](N)C[C@@H]2N)[C@H](N)C[C@@H]1O [Tobramycin, tobramycin]
- CA (10 mg/kg): 11.3
- CA, day 6 (10 mg/kg): 11.1 mg/dL
- CA (30 mg/kg): 11.1
- CA, day 6 (30 mg/kg): 11.1 mg/dL
- CA (100 mg/kg): 11.7

Where two headings read alike, the source gives them in different places.
